Tested on: adolescents undergoing posterior spine fusion
Assay: Acute tolerance to morphine analgesia after propofol/remifentanil anesthesia in scoliosis surgery (morphine consumption, NRS pain scores) by TRPA1 genotype
Settings: morphine patient-controlled analgesia after propofol/remifentanil anesthesia, NRS at rest

With `CN1CC[C@]23c4c5ccc(O)c4O[C@H]2[C@@H](O)C=C[C@H]3[C@H]1C5` [morphine] the “NRS Pain scores over 48 hours Mean ± S.D.” value (TRPA1 rs1025928 genotype CC (N=13)) was 5.846 ± 3.132, the “NRS Pain scores over 48 hours Mean ± S.D.” value (TRPA1 rs1025928 genotype CT (N=23)) was 6.391 ± 2.935 and the “NRS Pain scores over 48 hours Mean ± S.D.” value (TRPA1 rs1025928 genotype TT (N=6)) was 6.667 ± 1.966.

— US10662476B2 (priority 2011, dated 2020)
